Source: publication PMC9240326, “BacPROTACs mediate targeted protein degradation in bacteria” (Cell, 2022)

Chains of the proteins cited; added tags and fusions are not shown. Residues count along the entry.
UniProt A0R574, 1-148 limits assumed: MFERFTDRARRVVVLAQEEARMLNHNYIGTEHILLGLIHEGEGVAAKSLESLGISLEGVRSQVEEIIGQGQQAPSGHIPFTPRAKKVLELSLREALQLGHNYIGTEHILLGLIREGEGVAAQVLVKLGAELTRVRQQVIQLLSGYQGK
UniProt A0R574, whole entry, looked up: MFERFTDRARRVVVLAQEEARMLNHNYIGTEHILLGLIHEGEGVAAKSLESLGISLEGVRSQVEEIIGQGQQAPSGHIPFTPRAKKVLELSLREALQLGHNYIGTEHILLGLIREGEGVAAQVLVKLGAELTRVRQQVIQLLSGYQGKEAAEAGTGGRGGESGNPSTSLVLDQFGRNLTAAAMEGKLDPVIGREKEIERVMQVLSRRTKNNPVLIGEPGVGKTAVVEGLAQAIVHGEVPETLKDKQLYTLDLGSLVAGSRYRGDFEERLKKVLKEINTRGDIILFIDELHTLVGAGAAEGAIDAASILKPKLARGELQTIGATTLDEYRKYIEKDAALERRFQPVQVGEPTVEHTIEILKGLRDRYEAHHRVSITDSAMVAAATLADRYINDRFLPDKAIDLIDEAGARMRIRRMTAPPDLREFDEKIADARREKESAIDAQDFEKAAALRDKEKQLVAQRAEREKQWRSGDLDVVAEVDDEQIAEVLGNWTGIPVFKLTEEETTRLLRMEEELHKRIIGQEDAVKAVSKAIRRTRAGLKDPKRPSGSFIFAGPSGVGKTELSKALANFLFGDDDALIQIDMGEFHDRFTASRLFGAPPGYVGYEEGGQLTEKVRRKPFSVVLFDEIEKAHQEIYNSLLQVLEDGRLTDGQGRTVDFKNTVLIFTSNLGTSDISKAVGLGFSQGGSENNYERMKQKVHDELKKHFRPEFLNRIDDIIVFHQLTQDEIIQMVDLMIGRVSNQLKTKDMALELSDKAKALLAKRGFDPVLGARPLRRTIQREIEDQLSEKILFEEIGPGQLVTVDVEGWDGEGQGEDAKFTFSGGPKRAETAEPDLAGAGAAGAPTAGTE
UniProt P37571, whole entry E280A/E618A: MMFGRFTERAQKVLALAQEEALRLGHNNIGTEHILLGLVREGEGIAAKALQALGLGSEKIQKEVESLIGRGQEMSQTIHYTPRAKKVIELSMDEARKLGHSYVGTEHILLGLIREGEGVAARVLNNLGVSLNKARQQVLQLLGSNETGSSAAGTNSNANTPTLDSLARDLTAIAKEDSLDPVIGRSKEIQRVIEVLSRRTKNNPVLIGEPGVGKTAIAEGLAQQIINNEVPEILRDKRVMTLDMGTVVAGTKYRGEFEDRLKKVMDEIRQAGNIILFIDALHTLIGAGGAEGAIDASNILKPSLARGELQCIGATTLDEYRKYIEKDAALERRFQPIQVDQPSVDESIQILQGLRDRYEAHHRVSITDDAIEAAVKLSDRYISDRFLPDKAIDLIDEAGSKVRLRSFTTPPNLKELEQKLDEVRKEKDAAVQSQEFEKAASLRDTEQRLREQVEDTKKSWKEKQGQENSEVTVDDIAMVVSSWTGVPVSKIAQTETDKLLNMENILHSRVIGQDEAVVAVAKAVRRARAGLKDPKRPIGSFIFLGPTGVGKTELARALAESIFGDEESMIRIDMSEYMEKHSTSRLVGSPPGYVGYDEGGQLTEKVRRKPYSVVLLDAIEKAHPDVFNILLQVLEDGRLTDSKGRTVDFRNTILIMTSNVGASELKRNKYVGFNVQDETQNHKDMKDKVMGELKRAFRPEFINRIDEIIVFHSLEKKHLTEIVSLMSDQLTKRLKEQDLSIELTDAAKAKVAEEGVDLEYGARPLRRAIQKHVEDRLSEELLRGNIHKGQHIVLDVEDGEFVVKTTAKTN

What was measured:
ClpC1NTD = ClpC1NTD (Mycolicibacterium smegmatis, UniProt A0R574); assay: ITC titration with M. smegmatis ClpC1NTD; format: binding, Mycobacterium smegmatis; details: read-out: KD ClpC1NTD, 25 °C, average ± SD of independent measurements
ClpCDWB = ClpCDWB (Bacillus subtilis, UniProt P37571, E280A/E618A); assay: SEC and EM analysis of ClpC oligomeric state; details: ClpCDWB 25 μM, mSA-Kre 25 μM, 156 μM BacPROTAC-1
mSA:ClpC1NTD = assay: Analytical SEC, ternary complex mSA:ClpC1NTD; format: binding, Mycobacterium smegmatis; details: 25 μM proteins, 25 μM compound
[1] = biological target: B. subtilis ClpCP protease (Bacillus subtilis, UniProt P37571); assay: In vitro degradation assay, B. subtilis ClpCP; format: biochemical; details: 2-h incubation, SDS-PAGE; for mSA-Kre degradation by ClpCP, BacPROTAC-1 analogs: DMSO control
mSA:ClpCNTD = assay: Analytical SEC, ternary complex mSA:ClpCNTD; details: 25 μM proteins, 25 μM compound
M. smegmatis ClpC1P1P2 = M. smegmatis ClpC1P1P2 (Mycolicibacterium smegmatis, UniProt A0R574); assay: In vitro degradation assay, M. smegmatis ClpC1P1P2; format: biochemical, Mycobacterium smegmatis; details: 2-h incubation, SDS-PAGE

SMILES	Kd (ClpC1NTD)	ClpC oligomeric state induced (ClpCDWB)	Ternary complex formation mSA:ClpC1NTD (SEC) (mSA:ClpC1NTD)	mSA-Kre degradation by ClpCP ([1]; 1 μM compound)	mSA degradation by ClpCP ([1]; 100 μM compound)	Ternary complex formation mSA:ClpCNTD (SEC) (mSA:ClpCNTD)	mSA-Kre degradation by ClpC1P1P2 (M. smegmatis ClpC1P1P2)	mSA-Kre degradation by ClpCP, BacPROTAC-1 analogs [1]
CC(=O)NC(CCCNC(=N)NP(=O)(O)O)C(=O)NCCOCCOCCC(=O)NCCOCCOCCC(=O)NCCOCCOCCC(=O)NC(CCCCNC(=O)CCCCC1SCC2NC(=O)NC21)C(N)=O (stereo not drawn)	690 nM	tetramer of ClpC hexamers	promotes ternary complex formation	degraded	selective mSA depletion	formation of a stable ternary complex	induces the degradation of a mSA substrate in a highly selective and efficient manner	
CC(=O)NC(CCCNC(=N)NP(=O)(O)O)C(=O)NCCOCCOCCC(=O)NCCOCCOCCC(=O)NC(CCCCNC(=O)CCCCC1SCC2NC(=O)NC21)C(N)=O (stereo not drawn)								degradation efficiency was not significantly influenced
CC(=O)NC(CCCNC(=N)NP(=O)(O)O)C(=O)NCCOCCOCCC(=O)NC(CCCCNC(=O)CCCCC1SCC2NC(=O)NC21)C(N)=O (stereo not drawn)								degradation efficiency was not significantly influenced
